According to ChEMBL document CHEMBL1131394, “Design and synthesis of N-alkylated saccharins as selective alpha-1a adrenergic receptor antagonists” (Bioorg Med Chem Lett, 1998):

Columns and labels:
[1] = target: T1, Alpha-1A adrenergic receptor (Rattus norvegicus) (UniProt P43140); test: In vitro affinity for Alpha-1a adrenergic receptor in isolated rat aorta preparations was determined by functional assay; format: tissue-based
T1 sequence (whole entry): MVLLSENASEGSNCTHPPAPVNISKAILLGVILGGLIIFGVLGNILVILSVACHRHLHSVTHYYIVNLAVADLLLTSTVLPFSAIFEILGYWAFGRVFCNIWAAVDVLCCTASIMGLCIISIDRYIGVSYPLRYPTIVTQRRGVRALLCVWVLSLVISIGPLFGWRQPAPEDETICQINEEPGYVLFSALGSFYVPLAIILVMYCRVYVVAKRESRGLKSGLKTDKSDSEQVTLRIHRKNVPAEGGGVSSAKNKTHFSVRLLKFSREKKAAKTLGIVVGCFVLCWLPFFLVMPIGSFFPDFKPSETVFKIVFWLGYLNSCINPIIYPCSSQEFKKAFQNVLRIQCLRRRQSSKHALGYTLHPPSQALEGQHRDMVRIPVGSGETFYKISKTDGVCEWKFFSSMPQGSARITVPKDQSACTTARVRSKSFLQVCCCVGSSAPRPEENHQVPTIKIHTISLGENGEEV

[2] = target: T1, Alpha-1A adrenergic receptor (Rattus norvegicus); test: In vitro affinity for Alpha-1a adrenergic receptor in isolated rat prostate tissue preparations was determined by functional assay; format: tissue-based; conditions: Prostate gland

Kb [1]: 19 nM | Kb [2]: 27 nM
SMILES: COc1cc2nc(N3CCN(C(=O)C4CCCO4)CC3)nc(N)c2cc1OC (configuration not stated) [TERAZOSIN]
